Assay results reported in patent publication US8269015B2, “4-azetidinyl-1-heteroaryl-cyclohexane antagonists of CCR2” (Janssen Pharmaceutica N.V., priority 2009, dated 2012).

Target: T1, CCR2 (Homo sapiens, UniProt P41597)
T1 construct: host or cells: THP-1 (human monocytic cell line)
T1 sequence (P41597 1-360 isoform P41597-2): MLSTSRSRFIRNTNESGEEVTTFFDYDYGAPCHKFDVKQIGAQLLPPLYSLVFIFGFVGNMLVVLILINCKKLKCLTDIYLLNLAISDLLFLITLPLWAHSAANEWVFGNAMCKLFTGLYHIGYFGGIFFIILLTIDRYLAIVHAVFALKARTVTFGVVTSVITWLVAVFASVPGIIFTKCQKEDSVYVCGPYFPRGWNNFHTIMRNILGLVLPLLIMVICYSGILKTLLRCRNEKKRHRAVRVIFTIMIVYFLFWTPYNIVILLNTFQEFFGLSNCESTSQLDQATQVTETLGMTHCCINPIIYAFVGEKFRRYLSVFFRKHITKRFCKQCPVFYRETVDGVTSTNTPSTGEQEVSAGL
Test: MCP-1 Receptor Binding Assay in THP-1 Cells (125I labeled MCP-1)
Protocol: Compounds of the invention were subjected to various representative biological tests. […] MCP-1 Receptor Binding Assay in THP-1 Cells
Human monocytic cell line THP-1 cells were obtained from American Type Culture Collection (Manassas, Va., USA). […] The cell density was maintained […].
1 μM cold MCP-1 was used for nonspecific binding.

| Compound | IC50 |
| --- | --- |
| O=C(CNC(=O)c1cccc(C(F)(F)F)c1)NC1CN(C2CCC(c3cnccn3)CC2)C1 (single isomer, unassigned) [Example 35a, N-{[1-(4-Pyrazin-2-yl-cyclohexyl)-azetidin-3-ylcarbamoyl]-methyl}-3-trifluoromethyl-benzamide] | 0.044 µM |
| CN(C)c1ncc(C2CCC(N3CC(NC(=O)CNC(=O)c4cccc(C(F)(F)F)c4)C3)CC2)cn1 (single isomer, unassigned) [Example 36a, N-({1-[4-(2-Dimethylamino-pyrimidin-5-yl)-cyclohexyl]-azetidin-3-ylcarbamoyl}-methyl)-3-trifluoromethyl-benzamide] | 0.031 µM |
| Nc1cccnc1C1CCC(N2CC(NC(=O)CNC(=O)c3cccc(C(F)(F)F)c3)C2)CC1 (stereo not drawn) [Example 20, N-({1-[4-(3-Amino-pyridin-2-yl)-cyclohexyl]-azetidin-3-ylcarbamoyl}-methyl)-3-trifluoromethyl-benzamide] | 0.043 µM |
